## AlphaSeq binding of Ab-14 light chain variants to a spike HR2 peptide

Values reported by Li et al. 2023, doi:10.1038/s41467-023-39022-2 (FLAb copy).

All variants were tested on one target, the spike HR2 peptide PDVDLGDISGINAS (SARS-CoV-2).

Ab-14 is the parent antibody, in scFv form: VH, then a 15-residue (Gly4Ser)3 linker, then VL. The heavy chain is unchanged in all variants.
VH: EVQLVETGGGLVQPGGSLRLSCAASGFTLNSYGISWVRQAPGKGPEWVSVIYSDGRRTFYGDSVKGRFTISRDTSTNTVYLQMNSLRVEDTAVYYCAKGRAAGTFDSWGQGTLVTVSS
VL: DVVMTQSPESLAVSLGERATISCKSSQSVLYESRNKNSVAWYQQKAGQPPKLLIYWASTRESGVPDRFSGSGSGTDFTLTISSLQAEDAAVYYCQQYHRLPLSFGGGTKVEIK

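This is the validation round: designs drawn from the data on random variants, tested in the same kind of assay. Group labels follow the data file (En: ensemble of fine-tuned language models; GP: Gaussian process model; HC: hill climbing; Gen: genetic algorithm; Gibbs: Gibbs sampling; a sequence that several methods proposed may carry one label only). The assay is AlphaSeq: two haploid yeast populations carry antibody and antigen on their surface. Pairs that bind mate more often; barcode pairs of the diploids are counted by sequencing. The ratio of observed to expected reads was calibrated, replicate by replicate, on BCL2-family standards whose Kd was known from biolayer interferometry. Each pool was mated in six replicate cultures.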

Variants are written as CDR1, CDR2 and CDR3 of the light chain (limits as in the source). Parent: KSSQSVLYESRNKNSVA, WASTRES, QQYHRLPLS. This list holds designs with more than six substitutions. Scale: log10 of Kd in nM, estimated from mating counts; low values are strong binders. Where no diploid with the target was found in that replicate, the entry reads "ND": below detection, most likely a poor binder, though not proof of it. The authors' rule: three or more of the six replicates give a measured affinity, fewer mean a poor binder. Nonspecific signal, from three strains lacking the peptide, appeared in 4% of pairings of all light chain designs, centred on 2.64 (5% of these signals below 1.59); values are not corrected for it. Also given: how often the same scFv was detected with the empty control strains. Values of this round are not directly comparable with the first-round values of the same sequences.

With KLRLHNLDFYEQENSIA | GVSNRAH | QQYYRLPLN [En_Gibbs] the result was 1.56, 1.63, 1.48, 1.25, 1.42, 1.81 (controls 2 of 18). The variant KISQMYRYEQQNTSSIA | EANTREQ | QSYHRLPLS [En_HC] showed 1.17, 1.35, 1.75, 2.40, 2.32, 1.36 (controls 1 of 18). The variant KVDSAFLYEQRNKNSVA | QASQRES | QQYHRLPLS [GP_Gibbs] gave -0.22, -0.31, -0.64, -0.10, -0.09, -0.23 (controls 0 of 18). The variant KLPQSVPYEERCFNSVA | HASTRES | QQYHRLPLS [GP_Gibbs] gave 0.57, 0.54, 0.38, 0.54, 0.36, 0.43 (controls 0 of 18). With TIGGTLMYGMRNRSNVA | EVSERLN | QQYDRLPLA [En_Gen] the result was ND, ND, ND, ND, 2.46, 2.37 (controls 0 of 18).

For ALVAQNLQNMDKLNSIA | DQSQTQE | QQYFRLPFA [En_Gibbs], the assay gave ND, ND, ND, ND, ND, ND (controls 0 of 18). The variant KLSATYRFESQNKNSIA | EMTTRES | QCYHRLPLS [En_HC] gave 1.94, 1.63, 3.08, 2.36, 1.63, 3.21 (controls 0 of 18). The variant KVSQKDPMGSRNKNSVA | HASVREQ | QQYHRLPLS [GP_Gibbs] showed 1.07, 0.25, 0.47, 0.61, 0.60, 0.61 (controls 0 of 18). With HVSNLLTDEMYREYNIA | ETSHVEE | QQYERLPLI [En_Gibbs] the result was 1.56, 1.13, 1.56, 1.56, 1.30, 1.40 (controls 0 of 18). The variant SMSNAQFNPDNWKNSIA | DAEHVAY | QQYSRLPIT [En_Gibbs] showed 0.43, 0.61, 0.33, 0.06, 0.22, 0.47 (controls 1 of 18).

The variant SLELFSLEGDLPVNAVA | DEVVKLA | QQYFRLPLH [En_Gibbs] showed 1.49, 1.54, 1.46, 1.70, 1.37, 1.70 (controls 2 of 18). For NIYQAMHTLSQNRNNVA | DVNERGQ | QQYFRLPLS [En_Gen], the assay gave -0.19, -0.07, 0.25, -0.19, -0.14, -0.05 (controls 0 of 18). The variant KLQYLVLYESRNKNSVA | GASTRLQ | QQYHRLPLS [GP_Gibbs] gave -0.08, -0.05, 0.07, -0.05, -0.04, 0.17 (controls 0 of 18). For TISQSWLIESRNKNNVA | EMTTREN | QDYDRLPLS [En_HC], the assay gave -0.14, 0.27, 0.05, -0.13, 0.02, -0.21 (controls 0 of 18). For KIGDTLNQLTHKKNNVA | DLVTREN | QQYFRLPLS [En_Gen], the assay gave -0.19, 0.05, 0.07, 0.09, -0.32, -0.10 (controls 2 of 18).

The variant KWSISDLGGDRNKNSVA | HASCREQ | QQYHRLPLS [GP_Gibbs] showed 1.07, 1.41, 1.19, 1.11, 1.36, 1.82 (controls 0 of 18). For IISQSVLGGYHNKNSVA | QTSERGN | QQYDRLPLS [En_HC], the assay gave 0.55, 0.65, 0.70, 0.92, 0.99, 0.93 (controls 0 of 18). For KSSISMLYEERNDNSVA | NASQREH | QQYHRLPLS [GP_Gibbs], the assay gave 0.83, 0.12, 0.51, 0.16, 0.19, -0.08 (controls 0 of 18). The variant KISQTFNVGTKNKNSLA | EMSTREF | QDYHRLPLS [En_HC] gave 1.99, 0.99, 1.52, 1.38, 1.39, 1.36 (controls 1 of 18). The variant KLSQVTHSEHKNTNSIA | EMVTREK | QQYDRLPLS [En_HC] showed 0.06, 0.32, 0.01, -0.41, 0.37, 0.17 (controls 1 of 18).

The variant MISQLWNMGQFAINSVA | QASQRNA | QQYDRLPLM [En_Gen] showed 2.23, ND, 1.31, 1.16, 1.92, ND (controls 0 of 18). For KLSQITGHLMVSKNNVA | EMETREN | QQYDRLPLS [En_Gen], the assay gave 0.87, 0.50, 0.74, 0.39, 0.52, 0.58 (controls 0 of 18). The variant KIGGVTNGVSRSKNSVA | EQSTRED | QQYNRLPLS [En_HC] showed 0.67, 0.61, 0.82, 0.29, 0.56, 0.69 (controls 1 of 18). With KLGQSVAMTSRNKNNVA | DLNTRER | QQYHRLPLS [En_HC] the result was -0.26, -0.13, -0.29, -0.39, -0.18, -0.28 (controls 0 of 18). With KLMGSMLYESRNTNSVA | HASHRES | QQYHRLPLS [GP_Gibbs] the result was -0.04, 0.27, -0.23, 0.06, -0.45, -0.39 (controls 0 of 18).

The variant QFAGAMYGGGNDNQNIA | EAMTYIK | QQYSRLPLI [En_Gibbs] gave ND, ND, ND, ND, ND, ND (controls 0 of 18). With IISGSMLMESRNKNSVA | NAELREY | QHYDRLPLS [En_HC] the result was 0.92, 0.97, 0.67, 0.89, 0.77, 0.89 (controls 0 of 18). With IISQSVMFQQTLINSVA | NAQTREA | QQYHRLPLS [En_HC] the result was 0.49, -0.06, -0.01, 0.16, -0.07, 0.25 (controls 1 of 18). The variant HVSEPKYAVTNHRQNVA | SAAEREV | QQYFRLPFS [En_Gibbs] showed 0.42, 0.33, 0.54, 0.22, 0.38, 0.46 (controls 0 of 18). With SLPESLPQQQTNVNAVA | GAQHTAV | QQYGRLPLT [En_Gibbs] the result was 0.54, 0.55, 0.05, -0.13, 0.10, 0.27 (controls 0 of 18).

For KIGMTLNSLMHKKNNVA | DLVERET | QQYFRLPLS [En_Gen], the assay gave 0.23, 0.46, 0.45, 0.21, 0.51, 0.48 (controls 1 of 18). With LVDQSQLYEQRMKNSVA | SASLRES | QQYHRLPLS [GP_Gibbs] the result was 0.90, 0.88, 0.73, 0.77, 0.86, 0.88 (controls 3 of 18). The variant TISQITSLFTQNINNVA | EVSTRLN | QQYDRLPLA [En_Gen] gave 0.49, 1.00, 0.72, 0.75, 0.31, 1.13 (controls 0 of 18). With KISMMSTIESIMHNSVA | QTSEREN | QQYDRLPLS [En_HC] the result was 0.97, 1.07, 1.35, 0.47, 0.97, 1.18 (controls 1 of 18). The variant RLTEHQYMRADANHAVA | DASTRND | QQYHRLPLW [En_Gibbs] showed -0.32, -0.12, 0.02, -0.71, 0.26, -0.49 (controls 0 of 18).

The variant MISQIYNMGQFAINSVA | QASERNN | QQYDRLPLM [En_Gen] gave 1.43, 1.18, 1.57, 2.05, 1.36, 1.44 (controls 1 of 18). The variant KLTHLSFVHDRQKNNVA | DLERKAA | QQYNRLPLT [En_Gibbs] showed 0.73, 0.27, 0.54, 0.27, 0.30, 0.53 (controls 0 of 18). For KLFGGILEQERIDYSIA | YGTLSEV | QQYDRLPLS [En_Gibbs], the assay gave ND, ND, ND, ND, ND, ND (controls 0 of 18). The variant KITSHIREGTADNNAMA | NADVSHD | QQYSRLPLF [En_Gibbs] gave 1.10, 1.23, 0.59, 0.88, 1.40, 1.11 (controls 3 of 18). With TISQMTSLFSQSINNVA | EVSTREE | QQYDRLPLA [En_Gen] the result was 0.52, 1.12, 0.72, 0.80, 0.66, 0.71 (controls 2 of 18).

With KLSCSCLYDSANKNSVA | NASTRLS | QQYHRLPLS [GP_Gibbs] the result was 0.41, 0.45, 0.45, 0.51, 0.17, 0.47 (controls 2 of 18).